{
  "source": "patent US20200246352A1",
  "about": "“Vanadyl and vanadate for use in reducing stress-induced metabolic derangement” (CFM Pharma Holding B.V., priority 2017, published 2020)",
  "tested_on": "healthy male Wistar rats",
  "details": "high adrenaline dose (HA) 1 μg/kg/min",
  "protocol": "In the first part of the study (Table 1, Table 3, series 1), thirteen (13) healthy male Wistar rats were anesthetized by intraperitoneal (ip.) injection of thiopental (Tiobarbital 0.5 g, Braun Medical SA) after 12 hours of fasting.",
  "note": "Several values for one entry are separate records, joined by “and”; a condition that tells them apart may be missing. Identical values can stand only once. Like-named read-outs stand apart in the source and are kept apart here.",
  "data": [
    {"smiles": "CNCC(O)c1ccc(O)c(O)c1", "note": "(stereo not drawn) [adrenaline]", "values": [
      {"measurement": "Blood glucose levels, individual animals in duplicate", "setting": "120 min", "result": 16.6, "unit": "mM/l"},
      {"measurement": "Blood glucose levels, individual animals in duplicate", "setting": "150 min", "result": 17.1, "unit": "mM/l"},
      {"measurement": "Blood glucose levels, individual animals in duplicate", "setting": "180 min", "result": "18.4 mM/l and 17.0 mM/l and 16.8 mM/l"}
    ]}
  ]
}
